Chains of the proteins cited; added tags and fusions are not shown. Lines headed by an entry give the natural chain unless they say otherwise; changes in a name come on top. Residues count along the entry.
UniProt Q9NQU5: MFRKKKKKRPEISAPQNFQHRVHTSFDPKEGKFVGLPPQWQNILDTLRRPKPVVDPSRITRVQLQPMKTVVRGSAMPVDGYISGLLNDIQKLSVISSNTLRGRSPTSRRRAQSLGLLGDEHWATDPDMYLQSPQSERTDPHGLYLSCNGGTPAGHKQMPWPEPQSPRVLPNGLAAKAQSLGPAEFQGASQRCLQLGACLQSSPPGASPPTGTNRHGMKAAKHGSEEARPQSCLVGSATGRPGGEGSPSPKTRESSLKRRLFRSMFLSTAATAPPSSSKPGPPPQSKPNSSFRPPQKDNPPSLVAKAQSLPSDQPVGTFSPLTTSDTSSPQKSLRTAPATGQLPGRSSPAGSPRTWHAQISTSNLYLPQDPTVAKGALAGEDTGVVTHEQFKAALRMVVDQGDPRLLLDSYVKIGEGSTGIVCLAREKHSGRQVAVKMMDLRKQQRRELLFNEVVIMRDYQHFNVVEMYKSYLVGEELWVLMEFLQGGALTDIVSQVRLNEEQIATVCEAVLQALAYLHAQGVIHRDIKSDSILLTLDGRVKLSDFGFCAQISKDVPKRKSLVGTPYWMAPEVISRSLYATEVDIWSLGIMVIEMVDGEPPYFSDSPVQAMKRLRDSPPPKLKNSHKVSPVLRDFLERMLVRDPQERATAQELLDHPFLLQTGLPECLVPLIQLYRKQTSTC
UniProt P16234, 24-1089 D842V: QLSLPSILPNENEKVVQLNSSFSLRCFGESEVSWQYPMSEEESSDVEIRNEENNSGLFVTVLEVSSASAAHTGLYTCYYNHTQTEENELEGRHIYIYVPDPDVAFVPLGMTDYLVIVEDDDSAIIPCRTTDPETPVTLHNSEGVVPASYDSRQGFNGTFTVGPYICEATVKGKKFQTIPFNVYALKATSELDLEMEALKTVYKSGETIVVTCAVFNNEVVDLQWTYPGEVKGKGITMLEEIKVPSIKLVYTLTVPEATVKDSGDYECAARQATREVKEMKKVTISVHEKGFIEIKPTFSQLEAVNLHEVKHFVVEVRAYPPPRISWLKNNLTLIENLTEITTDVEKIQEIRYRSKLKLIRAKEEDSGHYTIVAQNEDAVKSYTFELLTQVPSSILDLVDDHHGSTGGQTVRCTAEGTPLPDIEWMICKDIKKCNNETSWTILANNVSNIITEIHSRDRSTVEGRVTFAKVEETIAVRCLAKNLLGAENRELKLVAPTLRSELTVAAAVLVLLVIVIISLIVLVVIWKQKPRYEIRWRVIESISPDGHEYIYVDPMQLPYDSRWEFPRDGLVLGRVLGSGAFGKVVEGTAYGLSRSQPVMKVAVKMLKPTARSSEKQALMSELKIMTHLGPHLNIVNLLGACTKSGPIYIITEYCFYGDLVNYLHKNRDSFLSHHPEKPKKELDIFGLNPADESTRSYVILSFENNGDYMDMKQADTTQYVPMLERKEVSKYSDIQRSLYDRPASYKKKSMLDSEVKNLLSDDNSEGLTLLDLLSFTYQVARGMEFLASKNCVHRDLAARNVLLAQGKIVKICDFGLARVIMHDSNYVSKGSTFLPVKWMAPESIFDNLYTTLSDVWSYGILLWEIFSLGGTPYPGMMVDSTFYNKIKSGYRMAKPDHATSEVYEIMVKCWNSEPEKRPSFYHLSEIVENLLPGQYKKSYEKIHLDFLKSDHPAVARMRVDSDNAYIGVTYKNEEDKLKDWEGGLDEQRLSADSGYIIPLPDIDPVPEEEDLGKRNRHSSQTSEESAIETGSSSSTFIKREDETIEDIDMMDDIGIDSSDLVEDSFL
UniProt Q15418, whole entry: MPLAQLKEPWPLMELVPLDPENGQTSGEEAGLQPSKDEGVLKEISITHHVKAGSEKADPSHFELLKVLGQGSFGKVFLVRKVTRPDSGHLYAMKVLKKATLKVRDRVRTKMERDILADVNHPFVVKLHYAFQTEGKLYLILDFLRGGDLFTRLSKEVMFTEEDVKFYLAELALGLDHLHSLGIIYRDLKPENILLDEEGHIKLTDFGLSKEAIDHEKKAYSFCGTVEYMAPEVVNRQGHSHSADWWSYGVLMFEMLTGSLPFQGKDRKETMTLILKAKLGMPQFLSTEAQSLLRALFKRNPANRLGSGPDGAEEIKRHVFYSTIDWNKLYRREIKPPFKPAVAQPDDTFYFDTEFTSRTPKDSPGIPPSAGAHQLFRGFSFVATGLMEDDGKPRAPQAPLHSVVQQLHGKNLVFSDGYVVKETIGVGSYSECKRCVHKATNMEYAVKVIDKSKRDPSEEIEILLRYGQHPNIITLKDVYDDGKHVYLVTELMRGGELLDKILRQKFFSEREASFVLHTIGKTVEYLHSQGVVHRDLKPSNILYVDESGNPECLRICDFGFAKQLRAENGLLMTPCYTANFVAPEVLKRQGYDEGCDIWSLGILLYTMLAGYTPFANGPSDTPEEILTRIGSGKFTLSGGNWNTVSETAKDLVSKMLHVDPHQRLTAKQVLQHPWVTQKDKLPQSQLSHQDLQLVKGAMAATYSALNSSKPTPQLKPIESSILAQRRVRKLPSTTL
UniProt P49840: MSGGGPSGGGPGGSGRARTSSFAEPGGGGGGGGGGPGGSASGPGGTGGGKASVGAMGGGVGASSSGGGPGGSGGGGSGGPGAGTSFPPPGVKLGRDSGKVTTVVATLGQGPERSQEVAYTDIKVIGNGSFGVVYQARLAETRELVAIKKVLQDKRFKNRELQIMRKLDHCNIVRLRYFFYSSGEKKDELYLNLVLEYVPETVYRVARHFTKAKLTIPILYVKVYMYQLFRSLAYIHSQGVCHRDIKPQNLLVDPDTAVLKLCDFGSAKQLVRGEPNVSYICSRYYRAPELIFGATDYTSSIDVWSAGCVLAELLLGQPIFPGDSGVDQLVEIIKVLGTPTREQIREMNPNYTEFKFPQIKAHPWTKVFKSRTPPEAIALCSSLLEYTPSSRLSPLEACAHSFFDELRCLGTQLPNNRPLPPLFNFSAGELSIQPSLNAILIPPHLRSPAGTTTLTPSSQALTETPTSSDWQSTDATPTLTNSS
UniProt P35916, 25-1363: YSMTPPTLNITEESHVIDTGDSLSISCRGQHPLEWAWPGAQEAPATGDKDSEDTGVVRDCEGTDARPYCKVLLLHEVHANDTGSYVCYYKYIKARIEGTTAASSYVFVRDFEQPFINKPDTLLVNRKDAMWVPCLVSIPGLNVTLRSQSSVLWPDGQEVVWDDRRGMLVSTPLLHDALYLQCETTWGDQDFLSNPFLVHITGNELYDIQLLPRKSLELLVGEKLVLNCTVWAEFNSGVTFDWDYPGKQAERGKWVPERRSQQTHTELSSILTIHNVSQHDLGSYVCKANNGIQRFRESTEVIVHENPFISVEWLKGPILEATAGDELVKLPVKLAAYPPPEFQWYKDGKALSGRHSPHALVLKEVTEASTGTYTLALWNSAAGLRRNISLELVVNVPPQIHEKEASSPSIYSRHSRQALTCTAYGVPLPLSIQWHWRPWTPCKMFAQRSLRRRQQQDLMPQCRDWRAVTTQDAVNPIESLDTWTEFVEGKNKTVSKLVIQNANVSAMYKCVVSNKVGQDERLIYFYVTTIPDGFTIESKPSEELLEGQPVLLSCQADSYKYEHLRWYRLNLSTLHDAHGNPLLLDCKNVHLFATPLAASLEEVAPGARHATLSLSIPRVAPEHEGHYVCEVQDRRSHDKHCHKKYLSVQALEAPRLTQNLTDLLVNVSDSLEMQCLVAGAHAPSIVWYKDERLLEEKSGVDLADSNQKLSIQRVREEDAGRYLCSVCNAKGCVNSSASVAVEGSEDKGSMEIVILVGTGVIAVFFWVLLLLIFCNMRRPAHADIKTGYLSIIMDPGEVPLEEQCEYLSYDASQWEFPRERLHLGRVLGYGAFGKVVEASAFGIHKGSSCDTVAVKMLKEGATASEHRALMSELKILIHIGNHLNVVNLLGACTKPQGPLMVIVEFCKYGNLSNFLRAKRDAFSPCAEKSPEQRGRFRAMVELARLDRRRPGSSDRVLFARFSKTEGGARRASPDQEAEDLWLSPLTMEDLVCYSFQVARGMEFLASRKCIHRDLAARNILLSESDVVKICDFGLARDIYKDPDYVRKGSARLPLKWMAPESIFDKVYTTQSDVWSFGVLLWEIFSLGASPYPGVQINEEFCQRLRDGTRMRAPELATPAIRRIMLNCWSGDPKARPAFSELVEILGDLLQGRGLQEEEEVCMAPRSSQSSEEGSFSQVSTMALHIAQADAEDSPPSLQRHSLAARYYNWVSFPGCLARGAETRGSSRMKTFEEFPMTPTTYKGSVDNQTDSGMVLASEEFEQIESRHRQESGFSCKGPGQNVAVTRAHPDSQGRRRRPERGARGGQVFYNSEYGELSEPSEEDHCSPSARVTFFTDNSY
UniProt P08631: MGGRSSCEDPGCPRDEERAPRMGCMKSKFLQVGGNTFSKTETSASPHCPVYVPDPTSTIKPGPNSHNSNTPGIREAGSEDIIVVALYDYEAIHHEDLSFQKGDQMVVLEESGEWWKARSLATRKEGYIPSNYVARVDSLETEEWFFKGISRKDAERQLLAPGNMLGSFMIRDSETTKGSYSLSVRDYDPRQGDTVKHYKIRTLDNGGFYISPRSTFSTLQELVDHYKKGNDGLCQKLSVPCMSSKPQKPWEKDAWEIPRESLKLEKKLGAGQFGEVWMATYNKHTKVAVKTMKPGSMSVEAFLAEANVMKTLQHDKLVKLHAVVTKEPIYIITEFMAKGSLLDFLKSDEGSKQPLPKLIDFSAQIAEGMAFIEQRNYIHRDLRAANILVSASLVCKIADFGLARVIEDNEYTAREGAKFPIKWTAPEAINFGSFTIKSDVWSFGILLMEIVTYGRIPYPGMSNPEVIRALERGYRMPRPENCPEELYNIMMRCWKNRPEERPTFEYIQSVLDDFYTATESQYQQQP
UniProt Q15349, whole entry: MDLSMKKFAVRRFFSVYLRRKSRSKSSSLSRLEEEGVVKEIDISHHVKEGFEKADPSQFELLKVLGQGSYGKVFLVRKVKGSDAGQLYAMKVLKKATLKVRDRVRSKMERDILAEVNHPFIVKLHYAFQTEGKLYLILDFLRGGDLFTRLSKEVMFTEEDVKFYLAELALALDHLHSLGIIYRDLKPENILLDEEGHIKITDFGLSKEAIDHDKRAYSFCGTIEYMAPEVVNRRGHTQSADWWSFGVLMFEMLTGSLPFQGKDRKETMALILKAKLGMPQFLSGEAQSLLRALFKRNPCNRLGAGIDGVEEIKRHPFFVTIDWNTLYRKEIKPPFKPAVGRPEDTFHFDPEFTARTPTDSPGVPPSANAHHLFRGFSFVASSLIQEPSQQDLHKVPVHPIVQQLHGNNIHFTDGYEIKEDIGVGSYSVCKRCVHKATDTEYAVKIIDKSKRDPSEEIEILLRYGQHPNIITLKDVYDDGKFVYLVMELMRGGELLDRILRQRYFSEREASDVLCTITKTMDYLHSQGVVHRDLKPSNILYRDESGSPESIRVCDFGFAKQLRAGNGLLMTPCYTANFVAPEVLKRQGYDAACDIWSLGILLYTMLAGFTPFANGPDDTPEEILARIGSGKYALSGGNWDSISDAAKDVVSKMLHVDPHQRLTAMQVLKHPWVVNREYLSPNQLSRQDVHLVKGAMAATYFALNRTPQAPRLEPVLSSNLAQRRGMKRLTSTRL
UniProt Q06187, whole entry R28H: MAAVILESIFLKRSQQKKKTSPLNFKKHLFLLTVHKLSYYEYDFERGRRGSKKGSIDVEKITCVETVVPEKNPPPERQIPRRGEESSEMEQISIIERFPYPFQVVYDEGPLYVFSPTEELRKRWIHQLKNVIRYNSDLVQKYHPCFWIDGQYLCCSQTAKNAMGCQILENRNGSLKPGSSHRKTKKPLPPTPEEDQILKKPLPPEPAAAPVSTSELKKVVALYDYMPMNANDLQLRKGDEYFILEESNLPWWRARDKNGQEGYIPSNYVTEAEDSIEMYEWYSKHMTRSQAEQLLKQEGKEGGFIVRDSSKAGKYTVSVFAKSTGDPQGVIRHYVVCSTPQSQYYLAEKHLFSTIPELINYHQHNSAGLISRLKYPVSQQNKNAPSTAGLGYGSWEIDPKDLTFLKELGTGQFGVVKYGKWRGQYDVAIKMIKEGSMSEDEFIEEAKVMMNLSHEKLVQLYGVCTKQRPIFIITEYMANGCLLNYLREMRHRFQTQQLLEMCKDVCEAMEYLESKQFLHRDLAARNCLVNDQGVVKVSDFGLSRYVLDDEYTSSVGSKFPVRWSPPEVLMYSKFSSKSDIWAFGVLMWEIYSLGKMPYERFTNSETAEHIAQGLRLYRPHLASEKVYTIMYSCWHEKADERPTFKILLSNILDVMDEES

According to US10562947B2, “Compositions and methods for preventing or treating diseases, conditions or processes characterized by aberrant fibroblast proliferation and extracellular matrix deposition” (MOERAE MATRIX, INC., priority 2011, dated 2020):

Legend:
Experiment in all cases: Kinase Profiling Assay
Assay type in all cases: biochemical
Settings in all cases: 100 μM peptide
[1] = target: PAK6(h) (Homo sapiens, UniProt Q9NQU5)
How it was run: (§1)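 Each kinase in a 266-member human panel is assayed, in duplicate, for activity in the presence of MK2 inhibitory peptides to gauge specificity.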

[2] = target: T1, HIPK3(h) (Homo sapiens, UniProt Q9H422)
T1 construct: purchased Millipore
How it was run: as §1

[3] = target: MEK1(h) (Homo sapiens, UniProt Q02750)
How it was run: as §1

[4] = target: PDGFRα(D842V)(h) (Homo sapiens, UniProt P16234, D842V)
How it was run: as §1

[5] = target: T2, Rsk1(h) (Homo sapiens, UniProt Q15418)
T2 construct: purchased Millipore (IC50 Profiler Express service)
How it was run: as §1

[6] = target: T3, GSK3α(h) (Homo sapiens, UniProt P49840)
T3 construct: purchased Millipore
How it was run: as §1

[7] = target: JNK2α2(h) (Homo sapiens, UniProt P45984)
How it was run: as §1

[8] = target: T4, EphA1(h) (Homo sapiens, UniProt P21709)
T4 sequence (P21709 26-976): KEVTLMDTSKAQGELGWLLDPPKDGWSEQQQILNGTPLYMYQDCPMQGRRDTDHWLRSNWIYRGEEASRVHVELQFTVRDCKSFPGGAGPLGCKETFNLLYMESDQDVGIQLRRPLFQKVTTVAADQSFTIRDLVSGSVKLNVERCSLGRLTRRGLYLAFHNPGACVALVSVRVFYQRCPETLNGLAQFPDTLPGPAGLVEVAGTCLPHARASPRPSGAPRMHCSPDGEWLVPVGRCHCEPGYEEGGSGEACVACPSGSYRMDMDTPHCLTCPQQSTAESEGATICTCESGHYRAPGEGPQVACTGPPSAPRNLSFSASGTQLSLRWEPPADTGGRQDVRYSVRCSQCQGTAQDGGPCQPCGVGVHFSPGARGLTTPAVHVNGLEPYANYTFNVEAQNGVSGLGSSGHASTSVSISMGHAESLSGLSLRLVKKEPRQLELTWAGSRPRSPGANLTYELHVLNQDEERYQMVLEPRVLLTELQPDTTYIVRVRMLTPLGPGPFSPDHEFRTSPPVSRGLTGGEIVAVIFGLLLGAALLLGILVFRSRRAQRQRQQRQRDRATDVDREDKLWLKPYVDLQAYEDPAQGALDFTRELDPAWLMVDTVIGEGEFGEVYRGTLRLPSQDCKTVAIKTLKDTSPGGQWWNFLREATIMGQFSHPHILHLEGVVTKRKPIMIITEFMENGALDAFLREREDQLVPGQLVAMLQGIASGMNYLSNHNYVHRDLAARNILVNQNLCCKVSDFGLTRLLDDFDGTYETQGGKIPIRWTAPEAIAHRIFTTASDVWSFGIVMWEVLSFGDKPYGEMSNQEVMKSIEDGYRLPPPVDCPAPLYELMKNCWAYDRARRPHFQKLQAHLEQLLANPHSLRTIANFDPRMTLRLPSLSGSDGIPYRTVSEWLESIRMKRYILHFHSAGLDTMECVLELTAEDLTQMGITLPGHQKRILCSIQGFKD
How it was run: as §1

[9] = target: F1t4(h) (Homo sapiens, UniProt P35916)
How it was run: as §1

[10] = target: T5, Hck(h) (Homo sapiens, UniProt P08631)
T5 construct: purchased Millipore
How it was run: as §1

[11] = target: Rsk3(h) (Homo sapiens, UniProt Q15349)
How it was run: as §1

[12] = target: Abl(h) (Homo sapiens, UniProt P00519)
How it was run: as §1

[13] = target: c-RAF(h) (Homo sapiens, UniProt P04049)
How it was run: as §1

[14] = target: BTK(R28H)(h) (Homo sapiens, UniProt Q06187, R28H)
How it was run: as §1

[15] = target: T6, EphA3(h) (Homo sapiens, UniProt P29320)
T6 sequence (P29320 21-983): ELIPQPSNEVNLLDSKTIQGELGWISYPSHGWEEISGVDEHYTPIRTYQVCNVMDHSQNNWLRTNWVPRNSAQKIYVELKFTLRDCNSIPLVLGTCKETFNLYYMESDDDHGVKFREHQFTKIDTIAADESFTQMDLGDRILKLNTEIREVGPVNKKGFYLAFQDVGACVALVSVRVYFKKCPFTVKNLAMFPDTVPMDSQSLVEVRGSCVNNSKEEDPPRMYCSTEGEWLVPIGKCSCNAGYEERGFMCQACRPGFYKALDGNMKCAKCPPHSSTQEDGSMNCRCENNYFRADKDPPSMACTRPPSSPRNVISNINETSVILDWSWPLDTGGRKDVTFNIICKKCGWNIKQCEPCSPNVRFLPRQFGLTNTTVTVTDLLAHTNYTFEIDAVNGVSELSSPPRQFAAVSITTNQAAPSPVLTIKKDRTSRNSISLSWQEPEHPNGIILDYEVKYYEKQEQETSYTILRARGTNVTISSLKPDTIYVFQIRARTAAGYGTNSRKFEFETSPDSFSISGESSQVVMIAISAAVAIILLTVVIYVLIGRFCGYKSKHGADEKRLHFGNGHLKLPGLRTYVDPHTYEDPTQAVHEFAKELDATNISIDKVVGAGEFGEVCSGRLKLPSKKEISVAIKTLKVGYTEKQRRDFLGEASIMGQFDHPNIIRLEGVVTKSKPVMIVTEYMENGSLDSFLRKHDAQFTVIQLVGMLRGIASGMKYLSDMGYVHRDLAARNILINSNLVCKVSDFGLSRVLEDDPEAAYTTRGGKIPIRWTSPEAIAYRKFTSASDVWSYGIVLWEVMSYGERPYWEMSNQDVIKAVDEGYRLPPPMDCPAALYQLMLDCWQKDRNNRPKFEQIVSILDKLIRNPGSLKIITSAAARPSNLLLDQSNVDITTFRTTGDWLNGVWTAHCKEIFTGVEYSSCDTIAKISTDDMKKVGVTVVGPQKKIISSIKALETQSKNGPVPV
How it was run: as §1

[16] = target: SIK(h) (Homo sapiens, UniProt P57059)
How it was run: as §1

## YARAAARQARAKALNRQLGVA (Mammalian) [MMI-0200]
[1]
  PAK6(h) % activity: 105%
[2]
  HIPK3(h) % activity: 105%
[3]
  MEK1(h) % activity: 116%
[4]
  PDGFRα(D842V)(h) % activity: 107%
[5]
  Rsk1(h) % activity: 102%
[6]
  GSK3α(h) % activity: 119%
[7]
  JNK2α2(h) % activity: 109%
[8]
  EphA1(h) % activity: 136%
[9]
  F1t4(h) % activity: 105%
[10]
  Hck(h) % activity: 107%
[11]
  Rsk3(h) % activity: 109%
[12]
  Abl(h) % activity: 107%
[13]
  c-RAF(h) % activity: 115%
[14]
  BTK(R28H)(h) % activity: 104%
[15]
  EphA3(h) % activity: 117%
[16]
  SIK(h) % activity: 102%
